Literature values as cited in paper PMC5995566.

Target: Annexin I peptide (Homo sapiens) (UniProt P04083)
Conditions: cited from earlier work

Question: With S100A6 (from UniProt P06703) as the substance, how does the Kd read?
Answer: The Kd was 13 µM.
